Assay results reported in ChEMBL document CHEMBL4043061, “Potent, Selective, Allosteric Inhibition of Human Plasmin by Sulfated Non-Saccharide Glycosaminoglycan Mimetics” (J Med Chem, 2017).
pIC50, pKd: −log10 of the molar value.

Amino acid sequences for entries named in this document (tags omitted). Residues count along the entry.
UniProt P00747, 97-580 limits assumed: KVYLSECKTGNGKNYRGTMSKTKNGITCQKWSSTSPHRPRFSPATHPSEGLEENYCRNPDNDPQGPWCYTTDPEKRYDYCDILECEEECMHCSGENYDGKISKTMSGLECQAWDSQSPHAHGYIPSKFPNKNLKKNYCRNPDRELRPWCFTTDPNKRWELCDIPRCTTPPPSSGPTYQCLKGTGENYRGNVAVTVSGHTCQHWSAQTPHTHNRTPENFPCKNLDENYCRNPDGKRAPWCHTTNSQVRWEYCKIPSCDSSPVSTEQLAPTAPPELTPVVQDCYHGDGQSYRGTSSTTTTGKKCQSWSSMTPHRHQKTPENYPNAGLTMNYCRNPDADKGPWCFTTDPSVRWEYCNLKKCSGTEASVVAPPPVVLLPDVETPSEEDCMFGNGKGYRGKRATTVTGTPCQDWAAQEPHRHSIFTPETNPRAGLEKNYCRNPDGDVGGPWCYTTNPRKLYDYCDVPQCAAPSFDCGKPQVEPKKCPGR
UniProt P00747, 581-810 limits assumed: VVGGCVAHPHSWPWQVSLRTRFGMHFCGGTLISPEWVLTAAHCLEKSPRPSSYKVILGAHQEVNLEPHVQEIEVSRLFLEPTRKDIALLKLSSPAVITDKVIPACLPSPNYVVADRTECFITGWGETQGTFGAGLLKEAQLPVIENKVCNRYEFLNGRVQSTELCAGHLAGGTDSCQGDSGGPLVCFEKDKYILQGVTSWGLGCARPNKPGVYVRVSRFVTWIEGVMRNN

Columns and labels:
Plasminogen [1] = target: T1, Plasminogen (Homo sapiens, UniProt P00747)
Plasminogen [2] = target: T1, Plasminogen; remark: listed apart in the source
Plasminogen [3] = target: T1, Plasminogen; remark: listed apart in the source
Plasminogen [4] = target: T1, Plasminogen; remark: listed apart in the source
Plasminogen [5] = target: T1, Plasminogen; remark: listed apart in the source
Plasminogen [6] = target: T1, Plasminogen; experiment: Binding affinity to human dansyl-EGR-chloromethylketone-plasmin complex assessed as loss of intrinsic tryptophan fluorescence by spectrofluorometric method
Plasminogen [7] = target: T1, Plasminogen; experiment: Binding affinity to human plasmin assessed as loss of intrinsic tryptophan fluorescence at 250 uM by spectrofluorometric method
In short: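 Intrinsic tryptophan fluorescence titration (ex 280 nm, em 348 nm) at 37 °C in 20 mM Tris-HCl pH 7.4 with 100 mM NaCl, 2.5 mM CaCl2, 0.1% PEG8000. Aliquots of 250 µM aqueous inhibitor added to 160 nM plasmin. Fractional fluorescence change fitted by quadratic binding equation for KD and maximal change. Run in triplicate.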

Plasminogen [8] = target: T1, Plasminogen; remark: listed apart in the source
Plasminogen [9] = target: T1, Plasminogen; remark: listed apart in the source
Plasminogen [10] = target: T1, Plasminogen; remark: listed apart in the source
Plasminogen [11] = target: T1, Plasminogen; experiment: Allosteric inhibition of full length human plasmin by using chromogenic substrate spectrozyme PL preincubated for 5 mins followed by substrate addition by spectrophotometric method
In short: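 Plasmin ~25 nM final in 20 mM Tris-HCl pH 7.4 (100 mM NaCl, 2.5 mM CaCl2, 0.1% PEG8000, 0.02% Tween80), 37 °C. Inhibitor added from 0–20 mM aqueous stocks, or vehicle. After 5 min, Spectrozyme PL added (1 mM stock). Residual activity taken from initial rate of A405 rise. Logistic fit gives IC50, efficacy and Hill slope.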

O=c1c(OS(=O)(=O)O)c(-c2ccc(OS(=O)(=O)O)c(OS(=O)(=O)O)c2)oc2cc(OS(=O)(=O)O)cc(OCc3ccc(COc4cc(OS(=O)(=O)O)cc5oc(-c6ccc(OS(=O)(=O)O)c(OS(=O)(=O)O)c6)c(OS(=O)(=O)O)c(=O)c45)cc3)c12
pIC50 (Plasminogen [1]): 4.59 | pIC50 (Plasminogen [2]): 5.06 | pIC50 (Plasminogen [3]): 5.44 | pIC50 (Plasminogen [4]): 5.21 | pIC50 (Plasminogen [5]): 5.55 | pKd (Plasminogen [6]): 5.36 | pKd (Plasminogen [7]): 6.15 | pIC50 (Plasminogen [8]): 5.34 | pIC50 (Plasminogen [9]): 4.98 | pIC50 (Plasminogen [10]): 4.85 | pIC50 (Plasminogen [11]): 5.14 to 5.20
